Test results: patent publication US7807162B2, “Single domain VHH antibodies against von Willebrand factor” (Ablynx N.V., priority 2005, dated 2010)
Positions count from the first letter of the chain named.

B1: 12B4: 12A5 homologue nanobody, SEQ ID NO: 67 (protein)
VHH: QVQLVESGGGLVQPGGSLRLSCLASGRIFSIGAMGLYRQAPGKQRELVATITSGGSTNYADSVKGRFTISRDGPKNTVYLQMNSLKPEDTAVYYCYANLKQGSYGYRFNDYWGQGTQVTVSS
B2: 12A6: 12A5 homologue nanobody, SEQ ID NO: 69 (protein)
VHH: B1 VHH with A33T, P74A, K86R, S103D
B3: 12D8: 12A5 homologue nanobody, SEQ ID NO: 70 (protein)
VHH: B1 VHH with Q1A, A33T, P74A, K86R, S103D
B4: 12E8: 12A5 homologue nanobody, SEQ ID NO: 68 (protein)
VHH: B1 VHH with Q1A, V5E, P74A, S103D
B5: 12A5H3: humanised 12A5 nanobody, SEQ ID NO: 97 (protein)
VHH: B1 VHH with Q1E, L23A, L36M, Q44G, S62P, G73N, P74A, K86R, P87A
B6: 12A5H2: humanised 12A5 nanobody, SEQ ID NO: 96 (protein)
VHH: B1 VHH with Q1E, L23A, L36M, Q44G, S62P, P74A, K86R, P87A
B7: 12A5H1: humanised 12A5 nanobody, SEQ ID NO: 95 (protein)
VHH: B1 VHH with Q1E, L23A, L36M, Q44G, S62P, K86R, P87A
B8: 12B6H2-3a-12B6H2 (protein)
VHH: EVQLVESGGGLVQPGGSLRLSCAASGRTFSYNPMGWFRQAPGKGREVVAAISRTGGSTYYARSVEGRFTISRDNAKRMVYLQMNSLRAEDTAVYYCAAAGVRAEDGRVRTLPSEYNFWGQGTQVTVSSAAAEVQLVESGGGLVQPGGSLRLSCAASGRTFSYNPMGWFRQAPGKGREVVAAISRTGGSTYYARSVEGRFTISRDNAKRMVYLQMNSLRAEDTAVYYCAAAGVRAEDGRVRTLPSEYNFWGQGTQVTVSS
B9: 12A2H4-3a-12A2H4 (protein)
chain: B8 VHH with V47L, A61P, R62D, M78S, N116T, V178L, A192P, R193D, M209S, N247T
B10: 12A2H1-3a-12A2H1 (protein)
VHH: B8 VHH with V47L, A61P, R62D, N116T, V178L, A192P, R193D, N247T

Target: vWF (Homo sapiens, UniProt P04275)
Assay: Analysis in BIACORE for binding to vWF
Conditions: estimated; nanobody 5 μg/ml on immobilised vWF
Description: vWF was covalently bound to the sensor chip surface via amine coupling. The CM5 surface of the chip was activated by the injection of EDC/NHS (1:1 mix of 0.4 M 1-ethyl-3-(3-dimethylaminopropyl)-carbodiimide and 0.1 M N-hydroxysuccinimide in water) for 7 minutes. Upon activation vWF was injected until an increase of 6000 response units was detected. The excess of reactive groups was deactivated with 1 M Ethanolamine-HCl (pH 8.5) for 7 minutes. The flowrate was kept constant during the immobilization procedure at 5 ul/min. The eluent buffer was 0.01 M HEPES (pH 7,4) with 0.15 M NaCl, 3 mM EDTA and 0.005% Surfactant P20.
The nanobodies 12B6 and 12A5 and their homologue proteins were analysed in BIACORE on vWF at a concentration of the nanobody of 5 μg/ml as shown in FIGS. 4 and 5.
From the set of curves that were generated for each nanobody, only those curves where equilibrium was reached, were used to derive the KD value via steady state affinity.

Koff [s⁻¹]	Kon [M⁻¹ s⁻¹]	Molecule
0.0022	544000	B1
0.00472	188000	B2
0.00584	139000	B3
0.00293	171000	B4

Same assay, conditions: nanobody 5 μg/ml

K-on and K-off rates compared among homologue nanobodies	Molecule
best K-on and K-off rates	B1

Test system: not listed separately
Assay: Stability at elevated temperatures: concentration of supernatant (OD280) after heating
Assay type: physicochemical
Conditions: 37° C., Table 36

Molecule	Concentration after heating at increasing temperatures
B5	101
B6	99
B7	99

Same assay, conditions: 37° C.; Tags: No, Table 40

Molecule	Concentration after heating at increasing temperatures
B8	100
B9	98
B10	100

Same assay, conditions: 37° C.; Tags: Yes, Table 40

Molecule	Concentration after heating at increasing temperatures
B8	100
B9	100
B10	98

Same assay, conditions: 50° C., Table 36

Molecule	Concentration after heating at increasing temperatures
B5	97
B6	108
B7	91

Same assay, conditions: 50° C.; Tags: No, Table 40

Molecule	Concentration after heating at increasing temperatures
B8	99
B9	98
B10	99

Same assay, conditions: 50° C.; Tags: Yes, Table 40

Molecule	Concentration after heating at increasing temperatures
B8	91
B9	99
B10	96

Same assay, conditions: 60° C., Table 36

Molecule	Concentration after heating at increasing temperatures
B5	97
B6	90
B7	86

Same assay, conditions: 60° C.; Tags: No, Table 40

Molecule	Concentration after heating at increasing temperatures
B8	99
B9	98
B10	100

Same assay, conditions: 60° C.; Tags: Yes, Table 40

Molecule	Concentration after heating at increasing temperatures
B8	85
B9	95
B10	93

Same assay, conditions: 70° C., Table 36

Molecule	Concentration after heating at increasing temperatures
B5	67
B6	58
B7	60

Same assay, conditions: 70° C.; Tags: No, Table 40

Molecule	Concentration after heating at increasing temperatures
B8	28
B9	18
B10	77

Same assay, conditions: 70° C.; Tags: Yes, Table 40

Molecule	Concentration after heating at increasing temperatures
B8	7
B9	9
B10	63

Same assay, conditions: 80° C., Table 36

Molecule	Concentration after heating at increasing temperatures
B5	73
B6	67
B7	69

Same assay, conditions: 80° C.; Tags: No, Table 40

Molecule	Concentration after heating at increasing temperatures
B8	13
B9	17
B10	14

Same assay, conditions: 80° C.; Tags: Yes, Table 40

Molecule	Concentration after heating at increasing temperatures
B8	6
B9	6
B10	8

Same assay, conditions: 90° C., Table 36

Molecule	Concentration after heating at increasing temperatures
B5	64
B6	60
B7	63

Same assay, conditions: 90° C.; Tags: No, Table 40

Molecule	Concentration after heating at increasing temperatures
B8	18
B9	26
B10	15

Same assay, conditions: 90° C.; Tags: Yes, Table 40

Molecule	Concentration after heating at increasing temperatures
B8	7
B9	9
B10	9
